Literature values, collected in PMC11938273 (Journal of Chemical Information and Modeling, 2025).

Conditions: in vivo; cited from earlier work

In the case of “(R)-2-fluoroethyl 1-(1-phenylethyl)-1H-imidazole-5-carboxylate [Fluoroethyl Etomidate (FETO)]”, the CNS status is listed as “Positive”.
In the case of “rac-(4R,4aS,6R,7R,7aR,12bS)-3-(cyclopropylmethyl)-6-((S)-2-hydroxy-3,3-dimethylbutan-2-yl)-7-methoxy-1,2,3,4,5,6,7,7a-octahydro-4a,7-ethano-4,12-methanobenzofuro[3,2-e]isoquinolin-9-ol [Buprenorphine]”, the CNS status is given as “Positive”.
